# Data: ChEMBL document CHEMBL1123465, “Buspirone analogues. 2. Structure-activity relationships of aromatic imide derivatives” (J Med Chem, 1986)
# Amino acid sequences for entries named in this document (tags omitted). A change or cut given only in a name is not applied to a line headed by its entry.
# UniProt P28564: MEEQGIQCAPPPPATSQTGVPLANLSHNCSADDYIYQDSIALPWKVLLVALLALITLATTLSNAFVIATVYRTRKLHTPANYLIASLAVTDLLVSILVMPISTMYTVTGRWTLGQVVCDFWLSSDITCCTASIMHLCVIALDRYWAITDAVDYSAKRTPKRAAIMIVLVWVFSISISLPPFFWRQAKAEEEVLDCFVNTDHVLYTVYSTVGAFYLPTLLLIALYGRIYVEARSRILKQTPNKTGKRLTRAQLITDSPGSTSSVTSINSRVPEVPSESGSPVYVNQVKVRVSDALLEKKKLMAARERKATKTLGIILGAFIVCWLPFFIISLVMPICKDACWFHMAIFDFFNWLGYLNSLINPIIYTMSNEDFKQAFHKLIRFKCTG
# UniProt P30940: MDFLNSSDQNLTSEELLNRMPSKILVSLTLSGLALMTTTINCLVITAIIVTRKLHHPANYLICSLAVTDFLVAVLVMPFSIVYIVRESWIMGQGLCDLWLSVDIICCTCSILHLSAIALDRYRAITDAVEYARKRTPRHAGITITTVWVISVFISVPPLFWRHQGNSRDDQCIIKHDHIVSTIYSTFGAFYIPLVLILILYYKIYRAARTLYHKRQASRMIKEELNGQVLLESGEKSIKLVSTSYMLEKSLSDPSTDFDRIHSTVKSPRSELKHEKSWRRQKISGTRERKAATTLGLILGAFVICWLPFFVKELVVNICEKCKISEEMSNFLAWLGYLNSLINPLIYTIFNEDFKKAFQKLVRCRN
# UniProt P19327: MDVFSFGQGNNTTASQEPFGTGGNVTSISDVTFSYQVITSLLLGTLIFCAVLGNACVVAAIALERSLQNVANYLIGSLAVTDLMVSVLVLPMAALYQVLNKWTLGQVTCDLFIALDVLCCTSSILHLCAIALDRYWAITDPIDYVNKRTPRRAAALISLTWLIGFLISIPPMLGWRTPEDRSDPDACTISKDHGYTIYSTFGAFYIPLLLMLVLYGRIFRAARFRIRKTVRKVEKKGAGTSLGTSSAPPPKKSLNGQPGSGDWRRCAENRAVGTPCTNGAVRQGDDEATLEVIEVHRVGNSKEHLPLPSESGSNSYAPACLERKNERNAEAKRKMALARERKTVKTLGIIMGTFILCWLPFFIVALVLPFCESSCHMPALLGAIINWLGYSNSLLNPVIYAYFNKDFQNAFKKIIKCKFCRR
# UniProt P28565: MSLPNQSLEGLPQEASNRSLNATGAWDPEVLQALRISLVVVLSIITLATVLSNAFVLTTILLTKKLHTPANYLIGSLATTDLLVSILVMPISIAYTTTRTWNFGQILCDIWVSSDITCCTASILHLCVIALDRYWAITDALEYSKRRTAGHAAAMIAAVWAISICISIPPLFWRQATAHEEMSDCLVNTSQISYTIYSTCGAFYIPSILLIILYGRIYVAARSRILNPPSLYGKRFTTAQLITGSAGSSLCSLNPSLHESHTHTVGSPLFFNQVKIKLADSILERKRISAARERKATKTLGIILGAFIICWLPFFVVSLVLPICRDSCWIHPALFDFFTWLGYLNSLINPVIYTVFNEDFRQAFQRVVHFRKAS
# Molecular target: Serotonin 1 (5-HT1) receptor (Rattus norvegicus, UniProt P28564+P30940+P19327+P28565)
# Test: Binding affinity towards hippocampus 5-hydroxytryptamine 1 receptor was measured using radioligand [3H]5-HT
# Format: tissue-based
compound,measurement,value
CC1(C)CC(=O)N(CCCCN2CCN(c3ncccn3)CC2)C(=O)C1.Cl [GEPIRONE HYDROCHLORIDE],IC50,0.67 µM
